Test results published in paper PMC12802956, “Dalbavancin dosing in a severely underweight person with prosthetic valve endocarditis: the critical role of proactive therapeutic drug monitoring” (Journal of Antimicrobial Chemotherapy, 2025).

Assay: Tolerability of earlier antibiotic therapy in the patient
Type: in vivo, human
Settings: single patient, treatment before the start of dalbavancin
Source text: We report the case of a patient who required initiation of dalbavancin therapy in November 2024 for infective endocarditis of a biological aortic valve (replaced April 2024) caused by Corynebacterium striatum. […] Due to a high surgical risk, the patient was deemed ineligible for repeat cardiac surgery.

daptomycin
tolerability in the patient: well tolerated
